Protein sequences, listed by entry. Tags and fused reporters are not part of them. Chains listed by the source or under a name are the forms on record and can include a tag or linker.
UniProt Q13574, other isoform, or with tags, fused parts or gaps: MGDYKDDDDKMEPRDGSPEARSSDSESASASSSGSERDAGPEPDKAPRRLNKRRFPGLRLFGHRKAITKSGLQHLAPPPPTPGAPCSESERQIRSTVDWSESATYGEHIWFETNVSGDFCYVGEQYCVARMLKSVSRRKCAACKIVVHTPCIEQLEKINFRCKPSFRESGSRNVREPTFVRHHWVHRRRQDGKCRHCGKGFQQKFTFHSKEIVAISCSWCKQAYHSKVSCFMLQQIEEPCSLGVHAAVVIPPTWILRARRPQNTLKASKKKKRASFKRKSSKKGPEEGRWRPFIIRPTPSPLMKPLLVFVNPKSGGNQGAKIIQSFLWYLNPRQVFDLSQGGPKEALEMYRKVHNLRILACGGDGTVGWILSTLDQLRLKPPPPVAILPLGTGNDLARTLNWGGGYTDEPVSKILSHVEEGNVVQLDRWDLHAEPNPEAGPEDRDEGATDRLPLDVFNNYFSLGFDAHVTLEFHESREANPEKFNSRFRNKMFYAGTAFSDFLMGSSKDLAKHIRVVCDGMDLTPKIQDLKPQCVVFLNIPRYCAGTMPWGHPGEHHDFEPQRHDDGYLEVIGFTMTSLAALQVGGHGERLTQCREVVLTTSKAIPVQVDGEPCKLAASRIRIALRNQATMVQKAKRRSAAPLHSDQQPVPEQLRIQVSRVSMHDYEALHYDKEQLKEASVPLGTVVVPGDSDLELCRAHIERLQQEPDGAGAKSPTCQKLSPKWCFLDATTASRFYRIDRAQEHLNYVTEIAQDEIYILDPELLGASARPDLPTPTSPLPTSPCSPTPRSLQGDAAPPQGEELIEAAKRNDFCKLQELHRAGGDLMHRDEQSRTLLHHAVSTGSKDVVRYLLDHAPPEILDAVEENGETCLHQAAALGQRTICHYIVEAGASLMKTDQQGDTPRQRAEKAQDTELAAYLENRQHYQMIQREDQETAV

In patent US11964953B2, “Substituted aminothiazoles as DGKzeta inhibitors for immune activation” (Bayer Aktiengesellschaft, priority 2020, dated 2024):

Molecular target: human DGKζ (Homo sapiens (Human), UniProt Q13574)
Assay: Human DGKζ kinase activity inhibition assay (ADP-Glo)
Format: biochemical
Settings: in vitro human DGKζ kinase activity inhibition assay
Experimental: Human DGKζ Kinase Activity Inhibition Assay. Human diacylglycerol kinase zeta (DGKζ) inhibitory activity of compounds of the present invention was quantified employing the human DGKζ kinase activity assay as described in the following paragraphs. In essence, the enzyme activity was measured by quantification of the adenosine-di-phosphate (ADP) generated as a co-product of the enzyme reaction via the “ADP-Glo™ Kinase Assay” kit from the company Promega. This detection system works as follows: In a first step the adenosine-tri-phosphate (ATP) not consumed in the kinase reaction is quantitatively converted to cyclic adenosine-mono-phosphate (cAMP) employing an adenylate cyclase (“ADP-Glo-reagent”), then the adenylate cyclase is stopped and the ADP generated in the kinase reaction is converted to ATP, which subsequently generates in a luciferase-based reaction a glow-luminescence signal (“Kinase Detection Reagent”). C-terminally FLAG-tagged, recombinant full-length human DGKζ (in house expressed in baculovirus infected insect cells, purified using anti-Flag pulldown and size exclusion chromatography) was used as enzyme. As an alternative, commercially available enzyme by Carnabio can be used. […]

`Cc1ccc(NC(=O)COc2ccc(C(=O)c3sc(N(c4ccc(F)cc4)C(C)C(N)=O)nc3N)cc2)cc1` (racemic) [Example 105, rac-2-(N-[4-amino-5-[4-[2-(4-methylanilino)-2-oxo-ethoxy]benzoyl]thiazol-2-yl]-4-fluoro-anilino)propanamide] showed an IC50 of 6.45 nM.
